Results: patent US20090054305A1, “Mixtures of Amylin and Insulin” (Novo Nordisk A/S, priority 2006, published 2009)

What was measured:
[1] = ThT fibrillation assay (physical stability); type: physicochemical; conditions: 174 mM glycerol, 16 mM phenol, 16 mM m-cresol, 30 mM sodium acetate, pH 3.5; 37° C.
Text: Low physical stability of a peptide may lead to amyloid fibril formation, which is observed as well-ordered, thread-like macromolecular structures in the sample eventually resulting in gel formation. In a ThT fibrillation assay application a small molecule indicator probe is used. Thioflavin T (ThT) has a distinct fluorescence signature when binding to fibrils (Naiki et al. (1989) Anal. Biochem. 177, 244-249; LeVine (1999) Methods. Enzymol. 309, 274-284).
The time course for fibril formation can be described by a sigmoidal curve as shown in FIG. 10 with the following expression (Nielsen et al. (2001) Biochemistry 40, 6036-6046):
Here, F is the ThT fluorescence at the time t. The constant t0 is the time needed to reach 50% of maximum fluorescence. The two important parameters describing fibril formation are the lag-time calculated by t0−2τ and the apparent rate constant kapp=1/τ. […]
Incubation at given temperature, shaking and measurement of the ThT fluorescence emission were done in a Fluoroskan Ascent FL fluorescence platereader (Thermo Labsystems). […] Fluorescence measurement was done using excitation through a 444 nm filter and measurement of emission through a 485 nm filter.
Each run was initiated by incubating the plate at the assay temperature for 10 min. The plate was measured every 20 minutes for a desired period of time. […]

[2] = treated test animals, e.g. provoking marked hyperlactemia followed by hyperglycemia; cited from earlier work
[3] = compared to human amylin; cited from earlier work

CC[C@H](C)[C@H](NC(=O)[C@@H]1CCCN1C(=O)CNC(=O)[C@H](Cc1ccccc1)NC(=O)[C@H](CC(N)=O)NC(=O)[C@H](CC(N)=O)NC(=O)[C@H](CO)NC(=O)[C@H](CO)NC(=O)[C@H](Cc1c[nH]cn1)NC(=O)[C@@H](NC(=O)[C@H](CC(C)C)NC(=O)[C@H](Cc1ccccc1)NC(=O)[C@H](CC(N)=O)NC(=O)[C@H](C)NC(=O)[C@H](CC(C)C)NC(=O)[C@H](CCCNC(=N)N)NC(=O)[C@H](CCC(N)=O)NC(=O)[C@@H](NC(=O)[C@H](C)NC(=O)[C@@H]1CSSC[C@H](NC(=O)[C@@H](N)CCCCN)C(=O)N[C@@H](CC(N)=O)C(=O)N[C@@H]([C@@H](C)O)C(=O)N[C@@H](C)C(=O)N[C@@H]([C@@H](C)O)C(=O)N1)[C@@H](C)O)C(C)C)C(=O)N[C@@H](CC(C)C)C(=O)N1CCC[C@H]1C(=O)N1CCC[C@H]1C(=O)N[C@H](C(=O)N[C@@H](CC(N)=O)C(=O)N[C@H](C(=O)NCC(=O)N[C@@H](CO)C(=O)N[C@@H](CC(N)=O)C(=O)N[C@H](C(=O)N[C@@H](Cc1ccc(O)cc1)C(N)=O)[C@@H](C)O)C(C)C)[C@@H](C)O [^25, 28, 29Pro-h-amylin]
fibrillation / ThT fluorescence signal throughout the assay time [1]: inert towards fibrillation | amylin activity in vivo [2]: amylin activity in vivo | solubility and stability characteristics [3]: more desirable solubility and stability characteristics
